## Measured affinities in a library of Ab-91 heavy chain variants

Reference: Engelhart et al. 2022, doi:10.1038/s41597-022-01779-4. File: FLAb, binding data.

The target is the same throughout: PDVDLGDISGINAS, from the HR2 region of SARS-CoV-2 spike.

Each scFv is VL, the linker GGGGSGGGGSGGGGS, VH, as in the parent Ab-91, and differs from it in the CDRs of the heavy chain only.
VL: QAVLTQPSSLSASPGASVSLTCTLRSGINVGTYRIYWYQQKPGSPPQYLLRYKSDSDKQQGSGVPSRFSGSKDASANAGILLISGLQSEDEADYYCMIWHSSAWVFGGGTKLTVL
VH: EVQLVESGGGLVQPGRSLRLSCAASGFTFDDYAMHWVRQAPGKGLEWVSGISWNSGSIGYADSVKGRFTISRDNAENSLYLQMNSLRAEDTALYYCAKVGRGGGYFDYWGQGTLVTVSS

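The parent was found by panning a naive human phage display library on the peptide. Variants in AAYL51 differ from the parent at up to three CDR positions; double and triple changes were sampled at random. AlphaSeq pools MATa yeast showing the antibodies with MATalpha yeast showing the peptide. After mating in shaken culture at 30 °C for 16 h, diploids were selected and their barcode pairs sequenced. Read counts were normalised to the haploid input and turned into Kd by a linear fit to BCL2-family pairs of known affinity, for each replicate. Mating was done three times.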

Positions count from residue 1 of the parent VH; F27A puts A in place of F. All variants listed here change D30 of the VH, counted from its first residue. The Kd shown is the geometric mean over detected replicates; a lower Kd is a better binder. Where no diploid with the target was found in any replicate, the entry reads "nd": below detection, most likely a poor binder, though not proof of it. Parent in this assay: reference entry 72 nM, copy in this library 7.5 nM. As a blank, each scFv also met three strains without target: over library AAYL51, 21% of these pairings were detected, typically at 34 µM and seldom below 1.8 µM. The control count says in how many pairings with the empty strains this scFv gave a signal.

changes	apparent Kd	replicates with signal	empty controls
F27A D30R A61Q	nd	0 of 3	1 of 9
D30K I58L Y60V	440 nM	3 of 3	2 of 9
D30E D31C D107L	nd	0 of 3	1 of 9
D30N	nd	0 of 3	0 of 9
T28Q D30S R101L	21 nM	3 of 3	3 of 9
G26R D30W G100S	68 µM	3 of 3	7 of 9
G26Q D30Q G100K	nd	0 of 3	1 of 9
D30T G56N G59W	nd	0 of 3	0 of 9
D30R Y32D G104E	1.5 µM	1 of 3	0 of 9
D30P S55D G59N	130 µM	2 of 3	3 of 9
D30N S57H Y60D	54 µM	3 of 3	5 of 9
D30K Y60S F106D	3.4 µM	1 of 3	1 of 9
D30Q Y32N F106Q	nd	0 of 3	0 of 9
D30Y A33W G50A	48 µM	1 of 3	3 of 9
G26S D30L D107A	nd	0 of 3	1 of 9
D30G M34C Y60R	13 µM	2 of 3	2 of 9
T28R D30E	36 µM	3 of 3	4 of 9
D30A S57P G100Q	78 µM	2 of 3	4 of 9
D30N G56A V64T	22 nM	3 of 3	3 of 9
D30C G56Q S63D	21 nM	3 of 3	0 of 9
D30I N54G A61S	630 µM	1 of 3	2 of 9
D30E S52R Y108Q	nd	0 of 3	0 of 9
D30T A33W	nd	0 of 3	0 of 9
D30C A33L D62P	nd	0 of 3	0 of 9
D30R I51E V64E	470 µM	1 of 3	3 of 9
D30S Y32T	15 µM	2 of 3	4 of 9
F29P D30V	nd	0 of 3	0 of 9
T28N D30P S57Y	34 nM	3 of 3	1 of 9
D30W N54M S55C	71 µM	2 of 3	2 of 9
D30Y Y60C	1.3 µM	3 of 3	3 of 9
F29P D30L S57T	46 µM	2 of 3	3 of 9
D30W	170 nM	3 of 3	3 of 9
G26R D30C	15 µM	1 of 3	0 of 9
F27V D30H S52M	16 µM	1 of 3	0 of 9
D30C I51Y K65R	74 µM	1 of 3	0 of 9
D30P F106K Y108F	12 nM	3 of 3	0 of 9
D30W A33Y Y105L	nd	0 of 3	1 of 9
D30N D107I Y108F	4.2 µM	1 of 3	0 of 9
F27V D30L Y105G	350 µM	3 of 3	7 of 9
D30N G100E	nd	0 of 3	0 of 9
D30V I58D V64N	3.2 µM	1 of 3	0 of 9
D30T I51L F106Q	nd	0 of 3	2 of 9
D30W A33Q S63L	nd	0 of 3	0 of 9
F27G D30N R101V	8.9 nM	3 of 3	1 of 9
F27R D30W G59M	29 µM	2 of 3	1 of 9
D30M V64L V99S	10 µM	2 of 3	3 of 9
D30E A33I	23 nM	3 of 3	1 of 9
F27G D30W S52E	nd	0 of 3	0 of 9
D30C H35L G102I	nd	0 of 3	1 of 9
F27H F29Q D30T	16 µM	1 of 3	3 of 9
D30H N54C	790 nM	3 of 3	2 of 9
D30A S57D I58H	360 µM	1 of 3	1 of 9
D30Q	62 µM	1 of 3	3 of 9
T28L D30G I58W	nd	0 of 3	1 of 9
D30R G104V	nd	0 of 3	0 of 9
D30F A61Q D107Y	81 µM	1 of 3	0 of 9
D30Y S52G G56K	890 nM	3 of 3	2 of 9
D30V S55F G56M	nd	0 of 3	0 of 9
G26K D30K D62Q	32 nM	3 of 3	4 of 9
D30M S63Y G102Q	730 nM	2 of 3	2 of 9
D30C G103W	15 µM	2 of 3	5 of 9
D30A S63Y D107V	nd	0 of 3	1 of 9
F27R D30R K65W	30 µM	1 of 3	2 of 9
D30G D31S K65P	380 µM	1 of 3	2 of 9
D30F H35T S55K	190 µM	2 of 3	8 of 9
D30A G50R I58Y	nd	0 of 3	3 of 9
D30M G50D V99C	57 µM	2 of 3	2 of 9
F27A D30S S57D	1.3 µM	2 of 3	3 of 9
D30R Y32L G56Y	nd	0 of 3	2 of 9
D30N N54G G100F	3.7 µM	1 of 3	1 of 9
D30G D62I D107P	9.9 nM	3 of 3	4 of 9
D30R S63H Y105R	55 µM	3 of 3	5 of 9

11 of these entries, quoted again:

changes	apparent Kd	replicates with signal	empty controls
G26S D30L D107A	nd	0 of 3	1 of 9
D30R Y32L G56Y	nd	0 of 3	2 of 9
D30E D31C D107L	nd	0 of 3	1 of 9
F27R D30W G59M	29 µM	2 of 3	1 of 9
F27G D30N R101V	8.9 nM	3 of 3	1 of 9
T28N D30P S57Y	34 nM	3 of 3	1 of 9
D30F A61Q D107Y	81 µM	1 of 3	0 of 9
D30E A33I	23 nM	3 of 3	1 of 9
D30R Y32D G104E	1.5 µM	1 of 3	0 of 9
D30N D107I Y108F	4.2 µM	1 of 3	0 of 9
D30K I58L Y60V	440 nM	3 of 3	2 of 9